Source: patent US7235366B1, “Methods of identifying agonists and antagonists of opioid receptors” (priority 1993, dated 2007)

Amino acid sequences for entries named in this document (tags omitted).
UniProt P35377, whole entry: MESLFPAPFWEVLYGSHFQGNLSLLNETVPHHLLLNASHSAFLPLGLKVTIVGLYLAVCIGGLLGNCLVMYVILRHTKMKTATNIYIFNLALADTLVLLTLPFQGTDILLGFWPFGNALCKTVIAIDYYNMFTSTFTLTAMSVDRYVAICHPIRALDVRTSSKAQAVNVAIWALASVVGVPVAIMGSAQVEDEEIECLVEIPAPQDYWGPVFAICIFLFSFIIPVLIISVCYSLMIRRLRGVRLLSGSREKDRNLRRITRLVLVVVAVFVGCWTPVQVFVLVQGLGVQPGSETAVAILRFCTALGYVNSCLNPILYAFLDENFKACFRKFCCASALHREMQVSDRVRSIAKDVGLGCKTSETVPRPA

Target: MOP2 (Mus musculus, UniProt P35377)
Assay: Forskolin stimulated cAMP accumulation in COS-7 cells expressing MOP2
Assay type: cell-based
Conditions: agonists 100 nM; naloxonazine 1 μM

Molecule | Block of the effects of etorphine and lofentanil on cAMP, MOP2
β-funaltrexamine | partially blocked
C=CCN1CC[C@]23c4c5ccc(O)c4O[C@H]2/C(=N/N=C2\CC[C@@]4(O)[C@H]6Cc7ccc(O)c8c7[C@@]4(CCN6CC=C)[C@H]2O8)CC[C@@]3(O)[C@H]1C5 | completely blocked
